Source: patent US20220281846A1, “COMPOUNDS AND COMPOSITIONS FOR THE TREATMENT OF RESPIRATORY DISEASES” (THE UNIVERSITY OF MELBOURNE, priority 2018, published 2022)

Protein sequences, listed by entry. Tags and fused reporters are not part of them. Lines headed by an entry give the natural chain unless they say otherwise; changes in a name come on top. Residues count along the entry.
UniProt Q8N4C8, whole entry: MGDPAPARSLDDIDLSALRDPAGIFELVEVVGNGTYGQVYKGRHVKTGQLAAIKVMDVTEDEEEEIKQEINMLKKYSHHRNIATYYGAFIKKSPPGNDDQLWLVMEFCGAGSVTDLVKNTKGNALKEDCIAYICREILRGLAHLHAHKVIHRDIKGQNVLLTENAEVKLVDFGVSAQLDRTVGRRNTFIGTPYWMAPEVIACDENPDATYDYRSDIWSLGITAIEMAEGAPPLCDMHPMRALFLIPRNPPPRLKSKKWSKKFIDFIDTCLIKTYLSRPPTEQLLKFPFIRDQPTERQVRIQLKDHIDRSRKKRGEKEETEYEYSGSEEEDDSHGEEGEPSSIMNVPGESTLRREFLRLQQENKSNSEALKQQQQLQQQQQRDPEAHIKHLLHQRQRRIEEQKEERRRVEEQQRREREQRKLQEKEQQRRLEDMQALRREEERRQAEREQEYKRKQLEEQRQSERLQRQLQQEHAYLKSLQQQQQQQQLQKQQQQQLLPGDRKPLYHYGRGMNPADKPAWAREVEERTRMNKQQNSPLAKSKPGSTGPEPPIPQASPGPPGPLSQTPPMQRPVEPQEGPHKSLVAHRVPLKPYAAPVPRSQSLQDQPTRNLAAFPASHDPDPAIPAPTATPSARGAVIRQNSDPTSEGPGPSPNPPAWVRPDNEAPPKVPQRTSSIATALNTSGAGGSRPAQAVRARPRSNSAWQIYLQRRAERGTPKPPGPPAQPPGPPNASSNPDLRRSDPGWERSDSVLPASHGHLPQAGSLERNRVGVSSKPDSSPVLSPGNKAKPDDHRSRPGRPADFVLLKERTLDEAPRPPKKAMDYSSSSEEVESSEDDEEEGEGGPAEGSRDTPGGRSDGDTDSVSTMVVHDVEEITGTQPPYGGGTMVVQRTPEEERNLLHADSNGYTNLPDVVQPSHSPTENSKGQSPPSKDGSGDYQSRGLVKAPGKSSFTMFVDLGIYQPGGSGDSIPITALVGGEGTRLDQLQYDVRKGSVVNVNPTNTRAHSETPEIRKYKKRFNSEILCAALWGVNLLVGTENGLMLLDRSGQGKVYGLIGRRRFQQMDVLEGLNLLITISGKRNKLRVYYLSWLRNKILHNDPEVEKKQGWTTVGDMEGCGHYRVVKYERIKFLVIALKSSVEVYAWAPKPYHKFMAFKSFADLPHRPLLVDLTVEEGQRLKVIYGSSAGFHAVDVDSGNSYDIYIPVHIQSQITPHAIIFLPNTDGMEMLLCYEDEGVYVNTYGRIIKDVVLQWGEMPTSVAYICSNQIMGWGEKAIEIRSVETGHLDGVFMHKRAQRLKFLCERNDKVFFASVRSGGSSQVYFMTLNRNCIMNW
UniProt P48730, whole entry: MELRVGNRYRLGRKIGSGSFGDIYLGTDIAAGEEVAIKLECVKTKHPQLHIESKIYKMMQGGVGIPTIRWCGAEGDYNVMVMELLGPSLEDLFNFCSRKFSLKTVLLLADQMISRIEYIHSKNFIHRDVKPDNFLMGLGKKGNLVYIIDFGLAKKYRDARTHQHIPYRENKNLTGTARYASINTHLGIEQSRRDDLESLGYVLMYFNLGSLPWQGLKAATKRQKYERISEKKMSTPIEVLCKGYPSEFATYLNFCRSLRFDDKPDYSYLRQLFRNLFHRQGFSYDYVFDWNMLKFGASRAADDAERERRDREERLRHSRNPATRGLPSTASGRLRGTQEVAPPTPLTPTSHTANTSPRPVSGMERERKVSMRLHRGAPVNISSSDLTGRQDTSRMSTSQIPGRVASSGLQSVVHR
UniProt Q15303, 26-1308 limits assumed: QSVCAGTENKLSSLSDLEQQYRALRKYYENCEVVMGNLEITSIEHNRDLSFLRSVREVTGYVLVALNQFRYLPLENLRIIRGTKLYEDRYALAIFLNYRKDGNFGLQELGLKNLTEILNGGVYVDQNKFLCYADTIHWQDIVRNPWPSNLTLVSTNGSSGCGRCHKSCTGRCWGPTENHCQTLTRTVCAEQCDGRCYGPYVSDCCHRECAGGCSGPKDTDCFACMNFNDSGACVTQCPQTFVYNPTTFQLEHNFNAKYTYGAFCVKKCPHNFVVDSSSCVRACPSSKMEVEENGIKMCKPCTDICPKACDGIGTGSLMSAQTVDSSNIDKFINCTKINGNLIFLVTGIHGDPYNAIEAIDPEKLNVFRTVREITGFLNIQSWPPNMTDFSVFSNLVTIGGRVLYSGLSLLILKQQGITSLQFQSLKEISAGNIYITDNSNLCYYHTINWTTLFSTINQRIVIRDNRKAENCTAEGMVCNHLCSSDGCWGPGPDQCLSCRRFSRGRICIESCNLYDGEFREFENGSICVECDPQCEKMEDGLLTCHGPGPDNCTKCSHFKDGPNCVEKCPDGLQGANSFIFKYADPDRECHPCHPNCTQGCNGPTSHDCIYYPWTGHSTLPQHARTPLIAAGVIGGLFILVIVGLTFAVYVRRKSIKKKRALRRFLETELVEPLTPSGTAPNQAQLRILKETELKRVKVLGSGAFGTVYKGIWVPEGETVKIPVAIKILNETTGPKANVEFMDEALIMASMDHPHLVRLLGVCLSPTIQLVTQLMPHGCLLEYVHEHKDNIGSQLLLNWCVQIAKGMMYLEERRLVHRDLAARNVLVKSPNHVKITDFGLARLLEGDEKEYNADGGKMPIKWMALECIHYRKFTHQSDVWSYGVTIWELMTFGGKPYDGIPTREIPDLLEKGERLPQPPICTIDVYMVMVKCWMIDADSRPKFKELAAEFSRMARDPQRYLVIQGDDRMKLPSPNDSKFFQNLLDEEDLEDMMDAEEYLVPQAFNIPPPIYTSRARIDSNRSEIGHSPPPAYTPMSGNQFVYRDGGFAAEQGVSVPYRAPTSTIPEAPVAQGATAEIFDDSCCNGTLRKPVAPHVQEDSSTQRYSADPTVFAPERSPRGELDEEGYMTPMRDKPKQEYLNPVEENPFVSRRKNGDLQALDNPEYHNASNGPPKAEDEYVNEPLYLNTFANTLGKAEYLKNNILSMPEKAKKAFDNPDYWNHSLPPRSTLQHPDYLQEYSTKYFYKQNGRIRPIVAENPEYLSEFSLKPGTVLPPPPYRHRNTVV

Experiments:
[1] = test system: TGF-β-induced IL-11 in primary human parenchymal fibroblast cells (pFbs); assay: Human parenchymal fibroblast cell assay, TGF-β-induced IL-11 (ELISA); details: compounds 0.1-10 μM 30 min prior to TGF-β1, 16-24 hours; 4.00* is assigned to compounds that failed to cause 50% or more inhibition at 10 mM
MINK/MINK1 = MINK/MINK1 (Homo sapiens, UniProt Q8N4C8); assay: Kinase inhibition assay (HotSpot), MINK/MINK1; details: read-out: Compound IC50 (M) MINK/MINK1; 10 μM ATP, 10-dose IC50 mode
[2] = target: human recombinant Casein kinase 18 (CK1δ) (Homo sapiens, UniProt P48730); assay: Kinase inhibition assay (HotSpot, Reaction Biology Corp), CK1δ; format: biochemical; details: 10 μM ATP, 10-dose IC50 mode
ERBB4/HER4 = ERBB4/HER4 (Homo sapiens, UniProt Q15303); assay: Kinase inhibition assay (HotSpot), ERBB4/HER4; details: read-out: Compound IC50 (M) ERBB4/HER4; 10 μM ATP, 10-dose IC50 mode

Question: How did the pIC50 IL-11 suppression [1] turn out when `OCCCNc1nccc(-c2c(-c3ccc(F)cc3)ncn2C2CCCCC2)n1` was run?
Answer: Its pIC50 IL-11 suppression is 4 ·.

Question: What about the IC50 (MINK/MINK1) of the same molecule?
Answer: The IC50 was 4.16e-08 M.

Question: What about the pIC50 ([2]; casein kinase 1δ) of the same molecule?
Answer: Its pIC50 is 8.74.

Question: What about the IC50 ([2]; read-out: Compound IC50 (M) CK1δ) of the same molecule?
Answer: Its IC50 is 1.82e-09 M.

Question: And the IC50 (ERBB4/HER4)?
Answer: Its IC50 is 3.12e-06 M.
